Columns and labels:
rat M5 mAChR [1] = target: T1, rat M5 mAChR (Rattus norvegicus, UniProt P08911); assay: ACh-stimulated IP accumulation (IP-One) in CHO-rM5 cells; assay type: cell-based; conditions: [3H]NMS-binding and functional studies
rat M5 mAChR [2] = target: T1, rat M5 mAChR; assay: [3H]NMS equilibrium binding in whole CHO-rM5 cells (interaction with ACh)

Chains of the proteins cited; added tags and fusions are not shown.
UniProt P08911, whole entry: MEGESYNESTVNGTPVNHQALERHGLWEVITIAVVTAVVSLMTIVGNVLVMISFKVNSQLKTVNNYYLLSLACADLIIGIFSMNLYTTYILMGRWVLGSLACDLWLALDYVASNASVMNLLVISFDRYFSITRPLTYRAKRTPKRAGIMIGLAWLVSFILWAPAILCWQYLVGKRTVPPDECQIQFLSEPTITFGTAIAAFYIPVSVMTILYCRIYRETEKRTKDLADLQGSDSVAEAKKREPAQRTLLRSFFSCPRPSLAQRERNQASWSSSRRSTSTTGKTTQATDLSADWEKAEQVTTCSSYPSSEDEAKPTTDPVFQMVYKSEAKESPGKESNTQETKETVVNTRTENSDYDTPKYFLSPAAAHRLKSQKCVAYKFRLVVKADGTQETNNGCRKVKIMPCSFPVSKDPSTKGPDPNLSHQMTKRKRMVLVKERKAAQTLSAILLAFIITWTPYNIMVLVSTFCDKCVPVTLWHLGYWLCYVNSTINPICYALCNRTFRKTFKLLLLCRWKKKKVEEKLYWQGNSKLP

Q: For `O=C(c1ccc(F)c(F)c1)N1CCN2C(=O)c3ccccc3[C@@]12c1ccc(Cl)cc1` [ML375, (S)-9b-(4-chlorophenyl)-1-(3,4-difluorobenzoyl)-2,3-dihydro-1H-imidazo[2,1-a]isoi ndol-5(9bH)-one], which “selectivity for rM5 mAChR over other mAChRs” value (rat M5 mAChR [1]) is on record?
A: high selectivity

Q: What about the “cooperativity with [3H]NMS” value (rat M5 mAChR [2]) of the same molecule?
A: neutral-to-weak negative cooperativity

Q: What about the “cooperativity with ACh binding, Log α” value (rat M5 mAChR [2]; whole-cell [3H]NMS binding) of the same molecule?
A: −1.41 ± 0.15
